We go through one compound from ChEMBL document CHEMBL3351720, “Design, synthesis and evaluation of benzoisothiazolones as selective inhibitors of PHOSPHO1” (Bioorg Med Chem Lett, 2014).

In this test the target is T1, Phosphomannomutase 2 (Homo sapiens, UniProt O15305).
T1 sequence (O15305 whole entry): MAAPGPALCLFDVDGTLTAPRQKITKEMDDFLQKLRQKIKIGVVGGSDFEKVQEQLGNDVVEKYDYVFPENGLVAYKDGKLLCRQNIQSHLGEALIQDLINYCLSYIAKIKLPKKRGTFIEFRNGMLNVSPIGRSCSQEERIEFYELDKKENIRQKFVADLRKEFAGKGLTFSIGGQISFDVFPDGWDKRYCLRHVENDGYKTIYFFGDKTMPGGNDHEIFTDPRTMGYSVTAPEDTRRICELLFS
Kind of test: Inhibition of PMM2 (unknown origin).

Each structure is given as a SMILES string.

`O=c1c2ccccc2sn1-c1ccccc1`: the IC50 was more than 20 µM.

By IC50 is commonly meant the midpoint of a concentration-inhibition curve. Low readings indicate greater potency in that assay, high ones weaker potency in that assay.
